Laboratory results reported in US20060079453A1, “Hla binding peptides and their uses” (priority 2002, published 2006).

The chains behind the UniProt entries cited, without tags or fusion partners. Residues count along the entry.
UniProt P79483, 30-266: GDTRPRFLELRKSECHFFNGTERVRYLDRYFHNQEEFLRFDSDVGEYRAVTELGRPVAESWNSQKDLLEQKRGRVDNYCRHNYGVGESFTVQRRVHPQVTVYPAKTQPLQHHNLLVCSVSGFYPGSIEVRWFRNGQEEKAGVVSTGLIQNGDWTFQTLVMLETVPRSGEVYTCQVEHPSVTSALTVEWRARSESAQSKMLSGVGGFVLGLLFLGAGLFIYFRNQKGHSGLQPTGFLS
UniProt Q30154, 30-266: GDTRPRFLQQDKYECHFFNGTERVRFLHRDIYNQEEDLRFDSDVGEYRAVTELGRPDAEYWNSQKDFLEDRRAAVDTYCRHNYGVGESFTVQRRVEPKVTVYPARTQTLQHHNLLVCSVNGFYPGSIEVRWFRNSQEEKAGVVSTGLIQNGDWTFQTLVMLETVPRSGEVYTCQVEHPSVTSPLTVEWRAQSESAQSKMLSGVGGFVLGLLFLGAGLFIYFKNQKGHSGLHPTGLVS

Experiments:
Assay in all cases: biochemical
Type in all cases: binding
[1] = target: HLA-A*0201 (Homo sapiens, UniProt P04439, D140Y/D185E/D98H/E176V/E277Q/G131W/G231S/I119V/I121R/I166T/I218V/L300P/L318F/N151K/N90K/P208A/P217A/Q86G/Q94H/R138H/R169H/T345S); conditions: A*0201 binding affinity (expressed as an IC50)
[2] = target: HLA-A*0206 (Homo sapiens, UniProt P04439, D140Y/D185E/D98H/E176V/E277Q/F33Y/G131W/G231S/I119V/I121R/I166T/I218V/L300P/L318F/N151K/N90K/P208A/P217A/Q86G/Q94H/R138H/R169H/T345S); conditions: A*0206 binding affinity (expressed as an IC50)
[3] = target: HLA-A*0203 (Homo sapiens, UniProt P04439, A173T/D140Y/D185E/D98H/E277Q/G131W/G231S/I119V/I121R/I166T/I218V/L180W/L300P/L318F/N151K/N90K/P208A/P217A/Q86G/Q94H/R138H/R169H/T345S)
[4] = target: HLA-DR DRB1*1302 (DR13) (Homo sapiens, UniProt P01903+P01911, A100E/A169T/K41T/L162R/M171V/P40S/Q125H/Q178H/Q39Y/Q99D/R42S/S66N/T262R/V115G/W38E/Y61H); conditions: DRBI *1302
[5] = target: HLA-DR DRB1*1501 (DR15) (Homo sapiens, UniProt P01903+P01911); conditions: DRBI *1501
[6] = target: HLA-DR DRB1*0301 (DR3) (Homo sapiens, UniProt P01903+P01911, A100K/A102G/A103R/A169T/F55Y/I96L/K41T/L162R/M171V/P40S/Q125H/Q178H/Q39Y/R42S/S66N/T106N/T262R/W38E/Y61H)
[7] = target: HLA-DR DRB4*0101 (DR53) (Homo sapiens, UniProt P01903+P13762, G164S); conditions: DRB4 *0101
[8] = target: HLA-DR DRB1*0405 (DR4) (Homo sapiens, UniProt P01903+P01911, A100R/A169T/D86S/F76Y/I96L/K127E/L162R/M171V/N62H/P40V/Q125Y/R42H/S133A/S149N/S66Y/V115G/V209L/W38E); conditions: DRB1 *0405
[9] = target: HLA-DR DRB3*0101 (DR52) (Homo sapiens, UniProt P01903+P79483)
[10] = target: HLA-DR DRB1*0701 (DR7) (Homo sapiens, UniProt P01903+P01911, A100R/A102G/A103Q/D57E/D86V/E43K/F76Y/K127E/L162R/M171V/P40G/Q125H/Q99D/R33Q/R42Y/R54Q/S133A/S66F/T210M/V115G/Y107V/Y59L/Y89S); conditions: DRB1 *0701
[11] = target: HLA-DR DRB1*0901 (DR9) (Homo sapiens, UniProt P01903+P01911, A100R/A103E/D57H/D86V/F55Y/F60I/F76Y/I96F/K127E/L162R/M171V/P40D/Q125H/Q99R/R33Q/R42F/S133A/S66N/T210M/V115G/W38K/Y107V/Y59G/Y89S); conditions: DRB1 *0901
[12] = target: HLA-DR DRB5*0101 (DR51) (Homo sapiens, UniProt P01903+Q30154); conditions: DRB5 *0101
[13] = target: HLA-DR DRB1*1101 (DR11) (Homo sapiens, UniProt P01903+P01911, A100R/A169T/A87E/I96F/K41T/L162R/M171V/P40S/Q125H/Q178H/Q39Y/Q99D/R42S/S66Y/T262R/V115G/W38E); conditions: DRB1 *1101
[14] = target: HLA-DR DRB1*0401 (DR4) (Homo sapiens, UniProt P01903+P01911, A100K/A169T/F76Y/I96L/K127E/L162R/M171V/N62H/P40V/Q125Y/R42H/S133A/S149N/S66Y/V115G/V209L/W38E); conditions: DRB1 *0401
[15] = target: HLA-DR DRB1*0101 (DR1) (Homo sapiens, UniProt P01903+P01911, A100R/D57E/F55L/F60I/F76Y/I96L/L162R/M171V/P40L/Q125E/R42F/V115G/Y59C); conditions: DRB1 *0101
[16] = target: HLA-DR DRB1*0802 (DR8) (Homo sapiens, UniProt P01903+P01911, A100R/A103L/A169T/F76Y/H45Y/I96F/K41T/L162R/M171V/P40S/Q125H/Q178H/Q39Y/Q99D/R218S/R42G/S66Y/V115G/W38E)
[17] = A*0203 binding affinity (expressed as an IC50)

Compound	IC50 [4] [nM]	IC50 [5] [nM]	IC50 [6] [nM]	IC50 [7] [nM]	IC50 [8] [nM]	IC50 [9] [nM]	IC50 [10] [nM]	IC50 [12] [nM]	IC50 [13] [nM]	IC50 [14] [nM]	IC50 [16] [nM]	also measured
CC(C)C[C@H](NC(=O)[C@H](CO)NC(=O)[C@H](CC(C)C)NC(=O)[C@@H](N)CO)C(=O)NCC(=O)N[C@@H](Cc1ccccc1)C(=O)N[C@@H](CC(C)C)C(=O)N[C@@H](Cc1ccccc1)C(=O)N[C@H](C(=O)O)C(C)C	–	–	–	–	–	–	–	–	–	–	–	IC50 [1]: 77 nM; IC50 [2]: 93 nM; IC50 [3, 17]: 21 nM
CC[C@H](C)[C@H](NC(=O)[C@H](Cc1ccc(O)cc1)NC(=O)[C@H](C)NC(=O)[C@H](CCC(=O)O)NC(=O)[C@H](CCC(=O)O)NC(=O)[C@H](Cc1ccccc1)NC(=O)[C@H](CCC(=O)O)NC(=O)[C@H](CCC(N)=O)NC(=O)[C@H](Cc1ccc(O)cc1)NC(=O)[C@@H](NC(=O)[C@H](CC(=O)O)NC(=O)[C@H](Cc1ccccc1)NC(=O)[C@H](C)NC(=O)[C@H](CC(C)C)NC(=O)[C@@H](N)CCC(N)=O)[C@@H](C)O)C(=O)O	15200	23200	7980	11500	5400	595	2580	–	–	–	–	–
CC[C@H](C)[C@H](NC(=O)[C@@H](NC(=O)[C@H](CCCNC(=N)N)NC(=O)[C@H](CC(C)C)NC(=O)[C@@H]1CCCN1C(=O)[C@H](C)NC(=O)[C@H](C)NC(=O)[C@H](CO)NC(=O)[C@H](C)NC(=O)[C@H](C)NC(=O)[C@H](CC(=O)O)NC(=O)[C@@H]1CCCN1C(=O)[C@@H]1CCCN1)[C@@H](C)O)C(=O)N[C@H](C(=O)N[C@@H](C)C(=O)O)[C@@H](C)O	10200	–	14900	–	–	10600	24900	1120	2580	–	–	IC50 [11]: 8670 nM
CC[C@H](C)[C@H](N)C(=O)N[C@@H](CS)C(=O)N[C@@H](CC(=O)O)C(=O)N[C@@H](CO)C(=O)N[C@@H](CCCNC(=N)N)C(=O)N[C@H](C(=O)N[C@@H](CC(C)C)C(=O)N[C@@H](CCC(=O)O)C(=O)N[C@@H](CCCNC(=N)N)C(=O)N[C@@H](Cc1ccc(O)cc1)C(=O)N[C@@H](CC(C)C)C(=O)N[C@@H](CC(C)C)C(=O)N[C@@H](CCC(=O)O)C(=O)N[C@@H](C)C(=O)N[C@@H](CCCCN)C(=O)O)C(C)C	20400	85	236	8550	11000	16200	–	7290	2940	1980	808	IC50 [15]: 2760 nM
CC(C)C[C@H](NC(=O)[C@H](C)NC(=O)[C@H](CC(C)C)NC(=O)[C@@H](N)CC(C)C)C(=O)N[C@@H](Cc1ccccc1)C(=O)N1CCC[C@H]1C(=O)N1CCC[C@H]1C(=O)N[C@@H](CCC(=O)O)C(=O)NCC(=O)N[C@H](C(=O)O)C(C)C	–	–	–	–	–	–	–	–	–	–	–	IC50 [1]: 5 nM
CC(C)C[C@H](NC(=O)[C@@H]1CCCN1)C(=O)N[C@H](C(=O)N[C@@H](CS)C(=O)N[C@@H](CC(N)=O)C(=O)NCC(=O)N[C@H](C(=O)N[C@@H](CC(C)C)C(=O)N[C@@H](CCC(N)=O)C(=O)NCC(=O)N[C@H](C(=O)O)C(C)C)C(C)C)C(C)C	–	–	–	–	–	–	–	–	–	–	–	IC50 [3, 17]: 19 nM
CC(C)C[C@H](NC(=O)[C@H](CCC(N)=O)NC(=O)[C@H](Cc1c[nH]cn1)NC(=O)[C@H](CC(C)C)NC(=O)[C@H](CCCNC(=N)N)NC(=O)[C@H](Cc1c[nH]cn1)NC(=O)[C@H](C)NC(=O)[C@H](CCCNC(=N)N)NC(=O)[C@@H](N)CC(C)C)C(=O)N[C@@H](C)C(=O)N[C@@H](Cc1ccccc1)C(=O)N[C@@H](CC(=O)O)C(=O)N[C@H](C(=O)N[C@@H](Cc1ccc(O)cc1)C(=O)N[C@@H](CCC(N)=O)C(=O)O)[C@@H](C)O	7590	90	15600	2	10100	19800	123	4470	3210	5080	5620	IC50 [11]: 15100 nM
CC(C)C[C@H](NC(=O)CN)C(=O)N[C@@H](CCCNC(=N)N)C(=O)N[C@@H](CO)C(=O)N[C@@H](CC(C)C)C(=O)N[C@H](C(=O)N[C@H](C(=O)N[C@@H](CC(C)C)C(=O)N[C@@H](CC(C)C)C(=O)N[C@@H](CCCNC(=N)N)C(=O)N[C@@H](C)C(=O)N[C@@H](CC(C)C)C(=O)NCC(=O)N[C@@H](C)C(=O)N[C@@H](CCC(N)=O)C(=O)O)[C@@H](C)O)[C@@H](C)O	871	–	2350	–	30	12900	–	2.7	3.7	24	14	IC50 [15]: 8.5 nM
CC[C@H](C)[C@H](N)C(=O)N[C@@H](CC(C)C)C(=O)N[C@@H](Cc1ccc(O)cc1)C(=O)N[C@@H](CO)C(=O)N[C@@H](C)C(=O)N[C@@H](Cc1c[nH]cn1)C(=O)N[C@@H](CC(=O)O)C(=O)N[C@H](C(=O)N[C@H](C(=O)N[C@H](C(=O)O)C(C)C)[C@@H](C)O)[C@@H](C)O	–	–	–	–	–	–	–	–	–	–	–	IC50 [2]: 1480 nM
CC(C)C[C@H](NC(=O)[C@H](C)N)C(=O)N[C@@H](Cc1ccccc1)C(=O)N1CCC[C@H]1C(=O)N1CCC[C@H]1C(=O)N[C@@H](CCC(=O)O)C(=O)NCC(=O)N[C@H](C(=O)N[C@@H](CO)C(=O)N[C@H](C(=O)O)C(C)C)C(C)C	–	–	–	–	–	–	–	–	–	–	–	IC50 [1]: 15 nM
ALGTTGYV	–	–	–	–	–	–	–	–	–	–	–	IC50 ([3]; read-out: A*0203 binding affinity (expressed as an IC50)): 12 nM
CC[C@H](C)[C@H](NC(=O)[C@H](CC(=O)O)NC(=O)[C@H](Cc1ccccc1)NC(=O)[C@H](CC(N)=O)NC(=O)[C@H](CCCNC(=N)N)NC(=O)[C@H](CCCNC(=N)N)NC(=O)[C@H](CC(=O)O)NC(=O)[C@H](CCCCN)NC(=O)[C@H](CC(C)C)NC(=O)[C@H](CS)NC(=O)[C@H](Cc1ccc(O)cc1)NC(=O)[C@H](CCC(=O)O)NC(=O)[C@H](CC(C)C)NC(=O)[C@H](CCCNC(=N)N)NC(=O)CN)C(=O)O	1240	940	853	15900	–	5210	12100	–	–	918	1320	IC50 [11]: 25200 nM; IC50 [15]: 9850 nM

Where two headings read alike, the source gives them in different places.
